# Measured affinities in a library of Ab-14 light chain variants

Binding partner: SARS-CoV-2 spike HR2 peptide, sequence PDVDLGDISGINAS.

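The starting antibody came from a phage panning campaign against this peptide. The library (AAYL50) carries one to three amino acid substitutions per variant, with no insertions or deletions. Affinity was read by AlphaSeq, a pooled yeast mating assay with surface-displayed partners. Pairs that bind mate more often; barcode pairs of the diploids are counted by sequencing. Scores were corrected for input abundance and mapped to Kd with protein pairs of known affinity run in the same pool. The assay was run in three technical replicates.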

Parent: Ab-14, a human scFv built as VH, the linker GGGGSGGGGSGGGGS, VL. Only the CDRs of the light chain vary.
VH: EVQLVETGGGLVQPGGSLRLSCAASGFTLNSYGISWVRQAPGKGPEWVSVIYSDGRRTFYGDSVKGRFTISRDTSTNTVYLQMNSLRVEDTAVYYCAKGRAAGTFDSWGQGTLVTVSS
VL: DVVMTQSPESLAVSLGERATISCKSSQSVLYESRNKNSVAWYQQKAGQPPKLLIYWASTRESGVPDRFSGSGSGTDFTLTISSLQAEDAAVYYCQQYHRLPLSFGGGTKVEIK

Changes read parent residue, position, new residue, counted from the first residue of the VL shown. Scale: log10 of Kd in nM, estimated from mating counts; low values are strong binders. An entry "ND" has no value in the source: the pair was not observed among the diploids in that replicate. This suggests poor binding but is not conclusive. For reference, the parent read 0.65 as the reference entry and 1.68 as a member of this library.

| # | changes | log10 Kd, replicates | signal with controls |
|---|---|---|---|
| 1 | S26M+E32H+L100K | 2.23 2.32 2.42 | 4 of 9 (4.63) |
| 2 | Q27Y+S33M+N35H | 2.50 2.67 2.81 | 4 of 9 (4.01) |
| 3 | R34P+S58A+Q96F | 2.77 3.43 3.85 | 2 of 9 (3.77) |
| 4 | T59C+H98I+R99I | 2.62 2.33 2.31 | 1 of 9 (3.83) |
| 5 | S26E+N35S+W56A | 2.85 ND ND | 2 of 9 (4.63) |
| 6 | Y97L+R99M | 2.42 2.11 1.97 | 3 of 9 (4.39) |
| 7 | A40V+T59G+P101Y | ND ND ND | 1 of 9 (4.49) |
| 8 | R60P+Q95D | 2.67 2.39 4.68 | 2 of 9 (3.57) |
| 9 | S26F+S58T | 1.62 1.54 1.46 | 0 of 9 |
| 10 | Y31A+Y97G+P101Q | 0.32 0.68 0.39 | 0 of 9 |
| 11 | V29E+N37Y+A40Y | ND 4.51 5.04 | 8 of 9 (4.64) |
| 12 | A40F+Y97I+L100Y | ND 4.56 4.33 | 1 of 9 (3.20) |
| 13 | K24P+L30C+A40H | ND ND ND | 2 of 9 (4.01) |
| 14 | S28C+S58V+Q95T | ND ND ND | 0 of 9 |
| 15 | V39R+S62Q | ND ND ND | 0 of 9 |
| 16 | S28D+Y31K+H98P | 0.92 1.15 1.33 | 0 of 9 |
| 17 | V29Q+A40Q+H98F | ND ND ND | 0 of 9 |
| 18 | S62C+R99K+P101E | ND ND ND | 0 of 9 |
| 19 | S26W+Q27Y+R99S | 2.29 ND ND | 1 of 9 (3.47) |
| 20 | W56I+A57P+T59S | 5.56 ND 3.43 | 1 of 9 (3.53) |
| 21 | K24M+S33Y+L102S | ND ND ND | 0 of 9 |
| 22 | V29Y+L30T+Y31M | 0.67 1.03 0.89 | 3 of 9 (3.82) |
| 23 | S33D+V39C+R99N | 2.33 2.79 2.85 | 1 of 9 (4.26) |
| 24 | Q27V+S58I+Q96P | ND ND ND | 1 of 9 (3.21) |
| 25 | R34T+Y97I | 1.61 1.63 1.79 | 0 of 9 |
| 26 | K24P+A57W+S62V | ND ND ND | 2 of 9 (3.77) |
| 27 | V29D+S33A+N35S | 0.58 0.76 0.95 | 3 of 9 (5.12) |
| 28 | S38C+Q95W+Q96K | 4.26 ND 4.62 | 3 of 9 (4.65) |
| 29 | S25C+E32Y+N37A | 1.15 1.54 1.26 | 4 of 9 (3.99) |
| 30 | Q27G+S28V+R60P | ND 2.27 3.11 | 0 of 9 |
| 31 | S25W+W56K | 0.15 0.38 0.34 | 0 of 9 |
| 32 | S26C+A57F+S103C | ND ND ND | 0 of 9 |
| 33 | N37D+V39Y+L100M | ND ND ND | 0 of 9 |
| 34 | S26F+A40W | ND ND ND | 0 of 9 |
| 35 | K36P+S38H | 1.64 0.54 1.59 | 0 of 9 |
| 36 | S38A+S58N+Q95M | 0.70 0.87 0.94 | 2 of 9 (4.20) |
| 37 | S25N+S28V+Q96N | 4.81 3.84 ND | 3 of 9 (4.66) |
| 38 | Y31G+S58F+R99T | 2.05 1.80 1.60 | 1 of 9 (3.29) |
| 39 | Q27P+T59A+Q96Y | ND ND ND | 0 of 9 |
| 40 | L30Y+S33E+S38T | 2.36 2.06 2.09 | 3 of 9 (4.80) |

4 of these entries, quoted again:

| changes | log10 Kd, replicates | signal with controls |
|---|---|---|
| S38C+Q95W+Q96K | 4.26 ND 4.62 | 3 of 9 (4.65) |
| V29D+S33A+N35S | 0.58 0.76 0.95 | 3 of 9 (5.12) |
| N37D+V39Y+L100M | ND ND ND | 0 of 9 |
| A40F+Y97I+L100Y | ND 4.56 4.33 | 1 of 9 (3.20) |

Three control strains display no target. For library AAYL50, 18% of the pairings with them gave a signal, with a median of 4.19 and one signal in twenty below 2.99, so weak values seen in few replicates may be background. For each scFv, signals with the empty controls are counted beside the result, with their mean in brackets.

Data: MIT Lincoln Laboratory AlphaSeq set, Engelhart et al. 2022, doi:10.1038/s41597-022-01779-4, as distributed in FLAb.